Values after ≈ are worked out from the molar mass of the structure shown.
Columns and labels:
[1] = target: Cholesterol 7α Hydroxylase (Mus musculus, UniProt Q64505); experiment: Cholesterol-7α-hydroxylase, liver in vitro
[2] = test system: lung bronchogenic MB-9812; experiment: Cytotoxicity, lung bronchogenic MB-9812; details: concentration which inhibits 50% of cell growth
[3] = Serum lipoprotein fractions; details: rats, 8 mg/kg/day orally 14 days, N = 6
HMG CoA Reductase = experiment: HMG CoA reductase (cholesterol synthesis), liver in vitro
Lewis lung carcinoma = experiment: In vivo Lewis lung carcinoma activity; details: 8 mg/kg/day I.P.
[4] = test system: murine L1210 lymphoid leukemia; experiment: Cytotoxicity, L1210 lymphoid leukemia; details: trypan blue exclusion
[5] = test system: Neutral Cholesterol Ester Hydrolase; experiment: Neutral cholesterol ester hydrolase, liver in vitro
osteosarcoma TE418 = experiment: Cytotoxicity, osteosarcoma TE418; details: for ED50 Cytotoxicity, Human Osteo-Sarcoma: te418 cells
[6] = test system: P388 lymphocytic leukemia; experiment: Cytotoxicity, P388 lymphocytic leukemia; details: p388 cells
[7] = Hypolipidemic screen in normal mice; details: CF1 male mice, IP; for Serum Cholesterol Day 9 / Serum Cholesterol Day 16 / Serum Triglycerides Day 16: 8 Mg/kg/day, N = 6
[8] = test system: human Tmolt3 acute lymphoblastic T cell leukemia; experiment: Cytotoxicity, Tmolt3; details: trypan blue exclusion
[9] = test system: SN Glycerol 3 Phosphate Acyl Transferase; experiment: sn-Glycerol-3-phosphate acyl transferase, liver in vitro
[10] = target: Acyl CoA Cholesterol Acyl Transferase (Mus musculus, UniProt O88908); experiment: Acyl CoA cholesterol acyl transferase, liver in vitro
Acetyl CoA Synthetase = Acetyl CoA Synthetase (Mus musculus, UniProt Q9QXG4); experiment: Acetyl CoA synthetase, liver homogenate in vitro; details: 30 min
[11] = target: ATP Dependent Citrate Lyase (Mus musculus, UniProt Q91V92); experiment: ATP dependent citrate lyase, liver homogenate in vitro; details: 30 min
[12] = Hypolipidemic screen in normal rats (serum lipids, body weight, food)
[13] = test system: KB epidermoid nasopharynx; experiment: Cytotoxicity, KB epidermoid nasopharynx; details: for ED50 Cytotoxicity, Human KB: kb cells
[14] = test system: Phosphatidylate Phosphohydrolase; experiment: Phosphatidylate phosphohydrolase, liver in vitro; details: 30 min
[15] = Anti-inflammatory activity, carrageenan paw; details: CF1 Mice, 20 mg/kg × 2 (table head; b1373: 8 mg/kg i.p. 3 hours and 30 minutes before carrageenan)
[16] = test system: HeLa-S^3 suspended cervical carcinoma; experiment: Cytotoxicity, HeLa-S3; details: hela-s3 cells
[17] = test system: colorectal adenocarcinoma SW480; experiment: Cytotoxicity, colorectal adenocarcinoma SW480; details: sw480 cells
Acetyl CoA Carboxylase = Acetyl CoA Carboxylase (Mus musculus, UniProt Q5SWU9); experiment: Acetyl CoA carboxylase, liver in vitro
[18] = Liver, small intestine, aorta, bile and fecal lipid extraction; details: rats, 8 mg/kg/day orally 14 days
glioma EH 118 MG = experiment: Cytotoxicity, glioma EH 118 MG; details: eh 118 mg cells
L1210 leukemia = experiment: in vivo L1210 leukemia screen; details: 20 mg/kg/day
[19] = test system: Ehrlich ascites carcinoma; experiment: in vivo Ehrlich ascites carcinoma screen; details: 20 mg/kg/day I.P., CF1 male mice
[20] = Sprague Dawley male rats, 8 mg/kd/day orally (clofibrate 150 mg/kg/day)

Sequences of proteins named here, by UniProt entry; tags and fusion partners are left off. A change or cut given only in a name is not applied to a line headed by its entry.
UniProt Q64505: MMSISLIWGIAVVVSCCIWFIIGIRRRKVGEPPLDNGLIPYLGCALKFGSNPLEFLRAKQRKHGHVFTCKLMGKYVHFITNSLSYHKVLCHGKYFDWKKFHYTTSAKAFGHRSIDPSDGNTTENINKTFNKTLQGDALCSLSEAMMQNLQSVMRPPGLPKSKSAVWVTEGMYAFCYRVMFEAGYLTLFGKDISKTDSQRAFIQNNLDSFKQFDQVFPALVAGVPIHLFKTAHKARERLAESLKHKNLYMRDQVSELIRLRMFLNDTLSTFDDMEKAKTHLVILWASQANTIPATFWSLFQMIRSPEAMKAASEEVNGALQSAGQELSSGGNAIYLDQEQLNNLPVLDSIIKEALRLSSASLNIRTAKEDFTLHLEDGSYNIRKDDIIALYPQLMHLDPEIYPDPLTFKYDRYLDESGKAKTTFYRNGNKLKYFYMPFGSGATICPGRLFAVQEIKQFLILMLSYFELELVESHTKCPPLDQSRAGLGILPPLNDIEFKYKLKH
UniProt O88908: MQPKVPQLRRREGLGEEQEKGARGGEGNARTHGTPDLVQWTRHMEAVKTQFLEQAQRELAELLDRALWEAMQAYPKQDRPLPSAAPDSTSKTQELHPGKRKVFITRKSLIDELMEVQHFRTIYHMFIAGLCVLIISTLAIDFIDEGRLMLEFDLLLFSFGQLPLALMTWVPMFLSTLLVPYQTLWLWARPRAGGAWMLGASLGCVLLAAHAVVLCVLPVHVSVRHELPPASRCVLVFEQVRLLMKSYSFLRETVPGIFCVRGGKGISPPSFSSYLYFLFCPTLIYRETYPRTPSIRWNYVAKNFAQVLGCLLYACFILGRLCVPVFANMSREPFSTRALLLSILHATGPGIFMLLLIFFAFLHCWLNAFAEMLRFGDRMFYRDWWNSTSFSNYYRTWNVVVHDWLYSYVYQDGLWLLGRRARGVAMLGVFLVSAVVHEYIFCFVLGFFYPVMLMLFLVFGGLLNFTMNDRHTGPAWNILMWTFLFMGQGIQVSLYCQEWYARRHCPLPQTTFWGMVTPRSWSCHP
UniProt Q9QXG4, whole entry, looked up: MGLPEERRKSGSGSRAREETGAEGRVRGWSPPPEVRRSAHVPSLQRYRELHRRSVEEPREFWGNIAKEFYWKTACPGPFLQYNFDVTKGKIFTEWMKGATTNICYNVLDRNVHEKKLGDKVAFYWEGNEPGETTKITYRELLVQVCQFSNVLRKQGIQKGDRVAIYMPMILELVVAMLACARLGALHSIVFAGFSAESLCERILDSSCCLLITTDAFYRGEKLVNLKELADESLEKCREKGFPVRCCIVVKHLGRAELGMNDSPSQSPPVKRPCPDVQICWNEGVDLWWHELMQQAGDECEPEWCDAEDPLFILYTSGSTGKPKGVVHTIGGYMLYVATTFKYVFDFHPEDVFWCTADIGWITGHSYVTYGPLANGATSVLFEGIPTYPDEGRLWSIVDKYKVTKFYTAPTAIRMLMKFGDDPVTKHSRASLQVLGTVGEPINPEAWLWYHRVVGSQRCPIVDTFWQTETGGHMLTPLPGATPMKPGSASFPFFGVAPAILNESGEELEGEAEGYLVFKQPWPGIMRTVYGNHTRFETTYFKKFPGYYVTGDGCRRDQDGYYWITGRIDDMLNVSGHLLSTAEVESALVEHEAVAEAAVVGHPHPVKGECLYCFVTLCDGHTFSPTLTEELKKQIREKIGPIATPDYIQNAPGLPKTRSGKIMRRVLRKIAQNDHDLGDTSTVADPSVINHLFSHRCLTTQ
UniProt Q91V92: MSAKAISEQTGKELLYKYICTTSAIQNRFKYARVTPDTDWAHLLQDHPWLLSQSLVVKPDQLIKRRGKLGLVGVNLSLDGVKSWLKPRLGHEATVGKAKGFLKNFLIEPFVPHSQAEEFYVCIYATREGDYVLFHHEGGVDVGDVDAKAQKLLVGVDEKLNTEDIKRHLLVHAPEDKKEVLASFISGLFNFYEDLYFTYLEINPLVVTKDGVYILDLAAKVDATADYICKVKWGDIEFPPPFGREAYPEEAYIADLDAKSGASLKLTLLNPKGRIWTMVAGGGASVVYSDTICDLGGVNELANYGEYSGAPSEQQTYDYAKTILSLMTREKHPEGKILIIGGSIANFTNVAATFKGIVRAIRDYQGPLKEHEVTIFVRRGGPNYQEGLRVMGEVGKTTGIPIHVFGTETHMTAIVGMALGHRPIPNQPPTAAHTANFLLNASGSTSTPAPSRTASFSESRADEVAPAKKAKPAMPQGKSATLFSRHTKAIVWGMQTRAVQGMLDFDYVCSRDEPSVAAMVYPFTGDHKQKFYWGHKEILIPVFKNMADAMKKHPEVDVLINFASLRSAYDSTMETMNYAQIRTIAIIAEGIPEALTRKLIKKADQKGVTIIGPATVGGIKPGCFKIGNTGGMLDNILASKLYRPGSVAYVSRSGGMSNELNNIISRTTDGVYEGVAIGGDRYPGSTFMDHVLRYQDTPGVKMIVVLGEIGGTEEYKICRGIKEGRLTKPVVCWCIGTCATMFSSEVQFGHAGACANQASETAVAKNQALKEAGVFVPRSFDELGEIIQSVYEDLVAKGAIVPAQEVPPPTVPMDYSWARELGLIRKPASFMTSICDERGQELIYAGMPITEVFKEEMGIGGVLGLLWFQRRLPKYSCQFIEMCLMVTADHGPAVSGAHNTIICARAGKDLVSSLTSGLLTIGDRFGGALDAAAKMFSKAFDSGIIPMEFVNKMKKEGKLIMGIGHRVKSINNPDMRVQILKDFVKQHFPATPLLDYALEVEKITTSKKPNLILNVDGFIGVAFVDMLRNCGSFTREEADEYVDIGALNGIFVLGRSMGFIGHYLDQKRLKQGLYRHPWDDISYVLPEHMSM

CCNC(=O)[BH2-][n+]1ccn(C)c1
Cholesterol 7α Hydroxylase ([1]; 25 μM): 112 ± 7% of Control
Cholesterol 7α Hydroxylase ([1]; 50 μM): 123 ± 6% of Control
Cholesterol 7α Hydroxylase ([1]; 100 μM): 128 ± 5% of Control
ED50 Cytotoxicity, Human Lung Bronchogenic [2]: 3.36 µg/mL (≈ 20.1 µM)
Chylomicron Cholesterol [3]: 120 ± 7% of Control
Chylomicron Neutral Lipids [3]: 66 ± 6% of Control
Chylomicron Phospholipids [3]: 11 ± 8% of Control
Chylomicron Protein [3]: 100 ± 6% of Control
Chylomicron Triglyceride [3]: 95 ± 7% of Control
HDL Cholesterol [3]: 326 ± 12% of Control
HDL Neutral Lipids [3]: 101 ± 6% of Control
HDL Phospholipids [3]: 65 ± 4% of Control
HDL Protein [3]: 92 ± 8% of Control
HDL Triglyceride [3]: 165 ± 6% of Control
LDL Cholesterol [3]: 36 ± 2% of Control
LDL Neutral Lipids [3]: 53 ± 5% of Control
LDL Phospholipids [3]: 73 ± 4% of Control
LDL Protein [3]: 45 ± 3% of Control
LDL Triglyceride [3]: 50 ± 4% of Control
VLDL Cholesterol [3]: 41 ± 3% of Control
VLDL Neutral Lipids [3]: 89 ± 7% of Control
VLDL Phospholipids [3]: 88 ± 5% of Control
VLDL Protein [3]: 69 ± 6% of Control
VLDL Triglyceride [3]: 90 ± 6% of Control
HMG CoA Reductase (HMG CoA Reductase; 25 μM): 66 ± 5% of Control
HMG CoA Reductase (HMG CoA Reductase; 50 μM): 61 ± 4% of Control
HMG CoA Reductase (HMG CoA Reductase; 100 μM): 22 ± 3% of Control
T/C%, in vivo Lewis lung carcinoma (Lewis lung carcinoma): 120%
ED50 Cytotoxicity, L1210 Lymphoid Leukemia [4]: 1.80 µg/mL (≈ 10.8 µM)
Neutral Cholesterol Ester Hydrolase ([5]; 25 μM): 141 ± 8% of Control
Neutral Cholesterol Ester Hydrolase ([5]; 50 μM): 184 ± 8% of Control
Neutral Cholesterol Ester Hydrolase ([5]; 100 μM): 424 ± 9% of Control
ED50 Cytotoxicity, Human Osteo-Sarcoma (osteosarcoma TE418): 2.53 µg/mL (≈ 15.1 µM)
inhibition of growth of human osteosarcoma (in words) (osteosarcoma TE418; text summary of Table 4): significantly inhibited
ED50 Cytotoxicity, P388 Lymphocytic Leukemia [6]: 6.00 µg/mL (≈ 35.9 µM)
Serum Cholesterol Day 9 [7]: 74 ± 7% of Control
Serum Cholesterol Day 16 [7]: 63 ± 4% of Control
Serum Triglycerides Day 16 [7]: 59 ± 6% of Control
serum triglyceride levels lowered ([7]; doses of Table 6): 41%
ED50 Cytotoxicity, Human lymphocyte Tmolt3 [8]: 1.79 µg/mL (≈ 10.7 µM)
SN Glycerol 3 Phosphate Acyl Transferase ([9]; 25 μM): 100 ± 7% of Control
SN Glycerol 3 Phosphate Acyl Transferase ([9]; 50 μM): 99% of Control
SN Glycerol 3 Phosphate Acyl Transferase ([9]; 100 μM): 97 ± 6% of Control
Acyl CoA Cholesterol Acyl Transferase ([10]; 25 μM): 126 ± 6% of Control
Acyl CoA Cholesterol Acyl Transferase ([10]; 50 μM): 101 ± 6% of Control
Acyl CoA Cholesterol Acyl Transferase ([10]; 100 μM): 93 ± 7% of Control
Acetyl CoA Synthetase (Acetyl CoA Synthetase; 25 μM): 101 ± 5% of Control
Acetyl CoA Synthetase (Acetyl CoA Synthetase; 50 μM): 85 ± 6% of Control
Acetyl CoA Synthetase (Acetyl CoA Synthetase; 100 μM): 79 ± 52% of Control
ATP Dependent Citrate Lyase ([11]; 25 μM): 30 ± 2% of Control
ATP Dependent Citrate Lyase ([11]; 50 μM): 24 ± 3% of Control
ATP Dependent Citrate Lyase ([11]; 100 μM): 22 ± 3% of Control
Serum Cholesterol Day 7 [12, 20]: 74 ± 6% of Control
Serum Cholesterol Day 14 [12, 20]: 58 ± 5% of Control
Serum Triglycerides Day 7 [12, 20]: 91 ± 6% of Control
Serum Triglycerides Day 14 [12, 20]: 78 ± 6% of Control
Percent Body Wt ([12]; Sprague Dawley male rats, 14 days at 8 mg/kd/day orally, 1% CMC control 131): 132%
Daily food consumption reduced ([12]; rats, 8 mg/kg/day orally): 5%
rat serum cholesterol levels lowered ([12]; rats, 8 mg/kg/day orally, after 14 days): greater than 40%
rat serum triglyceride levels reduced ([12]; rats, 8 mg/kg/day orally, day 14): 22%
reduction of the total body weight increase ([12]; rats, 8 mg/kg/day orally, over 14 days): no effect
ED50 Cytotoxicity, Human KB [13]: 2.52 µg/mL (≈ 15.1 µM)
activity in the KB nasopharynx screen (in words) ([13]; text summary of Table 4): good activity
Phosphatidylate Phosphohydrolase ([14]; 25 μM): 60 ± 5% of Control
Phosphatidylate Phosphohydrolase ([14]; 50 μM): 53 ± 6% of Control
Phosphatidylate Phosphohydrolase ([14]; 100 μM): 47% of Control
% of Control, anti-inflammatory (paw weight increase) [15]: 70 % of Control
ED50 Cytotoxicity, Human HeLa-S^3 [16]: 2.24 µg/mL (≈ 13.4 µM)
ED50 Cytotoxicity, Human Colon SW480 [17]: 7.76 µg/mL (≈ 46.5 µM)
Acetyl CoA Carboxylase (Acetyl CoA Carboxylase; 25 μM): 123 ± 9% of Control
Acetyl CoA Carboxylase (Acetyl CoA Carboxylase; 50 μM): 121 ± 7% of Control
Acetyl CoA Carboxylase (Acetyl CoA Carboxylase; 100 μM): 73 ± 5% of Control
Aorta Cholesterol [18]: 73 ± 5% of Control
Aorta Neutral Lipids [18]: 256 ± 6% of Control
Aorta Phosphate Lipids [18]: 81 ± 4% of Control
Aorta Protein [18]: 93 ± 5% of Control
Aorta Triglyceride [18]: 83 ± 5% of Control
Aorta mg Lipid Extracted [18]: 117 ± 7% of Control
Bile Cholesterol [18]: 156 ± 10% of Control
Bile Neutral Lipids [18]: 104 ± 7% of Control
Bile Phosphate Lipids [18]: 95 ± 8% of Control
Bile Protein [18]: 111 ± 5% of Control
Bile Triglyceride [18]: 121 ± 5% of Control
Liver Cholesterol [18]: 85 ± 6% of Control
Liver Neutral Lipids [18]: 115 ± 6% of Control
Liver Phosphate Lipids [18]: 133 ± 6% of Control
Liver Protein [18]: 109 ± 7% of Control
Liver Triglyceride [18]: 78 ± 5% of Control
Liver mg Lipid Extracted [18]: 74 ± 6% of Control
Small Intestine Cholesterol [18]: 80 ± 6% of Control
Small Intestine Neutral Lipids [18]: 104 ± 4% of Control
Small Intestine Phosphate Lipids [18]: 41 ± 4% of Control
Small Intestine Protein [18]: 102 ± 6% of Control
Small Intestine Triglyceride [18]: 95 ± 5% of Control
Small Intestine mg Lipid Extracted [18]: 88 ± 8% of Control
Feces Cholesterol ([18]; 24 h collection): 176 ± 8% of Control
Feces Neutral Lipids ([18]; 24 h collection): 127 ± 9% of Control
Feces Phosphate Lipids ([18]; 24 h collection): 207 ± 3% of Control
Feces Protein ([18]; 24 h collection): 201 ± 8% of Control
Feces Triglyceride ([18]; 24 h collection): 63 ± 7% of Control
Feces mg Lipid Extracted ([18]; 24 h collection): 130 ± 8% of Control

Cn1cc[n+]([BH2-]C#N)c1
ED50 Cytotoxicity, Human Lung Bronchogenic [2]: 2.66 µg/mL (≈ 22 µM)
ED50 Cytotoxicity, Human Glioma (glioma EH 118 MG): 3.00 µg/mL (≈ 24.8 µM)
T/C%, L1210 leukemia screen in vivo (L1210 leukemia): inactive
inhibition of growth, in vivo Ehrlich ascites carcinoma [19]: 83%
ED50 Cytotoxicity, L1210 Lymphoid Leukemia [4]: 3.12 µg/mL (≈ 25.8 µM)
ED50 Cytotoxicity, Human Osteo-Sarcoma (osteosarcoma TE418): 6.86 µg/mL (≈ 56.7 µM)
ED50 Cytotoxicity, P388 Lymphocytic Leukemia [6]: 5.13 µg/mL (≈ 42.4 µM)
Serum Cholesterol Day 9 [7]: 74 ± 7% of Control
Serum Cholesterol Day 16 [7]: 71 ± 8% of Control
Serum Triglycerides Day 16 [7]: 74 ± 6% of Control
ED50 Cytotoxicity, Human lymphocyte Tmolt3 [8]: 2.39 µg/mL (≈ 19.8 µM)
ED50 Cytotoxicity, Human KB [13]: 7.18 µg/mL (≈ 59.4 µM)
% of Control, anti-inflammatory (paw weight increase) [15]: 71 % of Control
ED50 Cytotoxicity, Human HeLa-S^3 [16]: 2.40 µg/mL (≈ 19.8 µM)
ED50 Cytotoxicity, Human Colon SW480 [17]: 6.77 µg/mL (≈ 56 µM)

N#C[BH2-][n+]1cc[nH]c1
ED50 Cytotoxicity, Human Lung Bronchogenic [2]: 2.92 µg/mL (≈ 27.3 µM)
ED50 Cytotoxicity, Human Glioma (glioma EH 118 MG): 3.22 µg/mL (≈ 30.1 µM)
T/C%, L1210 leukemia screen in vivo (L1210 leukemia): 125%
T/C%, in vivo Lewis lung carcinoma (Lewis lung carcinoma): 148%
inhibition of growth, in vivo Ehrlich ascites carcinoma [19]: 66%
ED50 Cytotoxicity, L1210 Lymphoid Leukemia [4]: 5.12 µg/mL (≈ 47.9 µM)
ED50 Cytotoxicity, Human Osteo-Sarcoma (osteosarcoma TE418): 4.09 µg/mL (≈ 38.3 µM)
ED50 Cytotoxicity, P388 Lymphocytic Leukemia [6]: 4.83 µg/mL (≈ 45.2 µM)
Serum Cholesterol Day 9 [7]: 78 ± 6% of Control
Serum Cholesterol Day 16 [7]: 67 ± 5% of Control
Serum Triglycerides Day 16 [7]: 67 ± 5% of Control
ED50 Cytotoxicity, Human lymphocyte Tmolt3 [8]: 2.93 µg/mL (≈ 27.4 µM)
ED50 Cytotoxicity, Human KB [13]: 6.15 µg/mL (≈ 57.5 µM)
% of Control, anti-inflammatory (paw weight increase) [15]: 99 % of Control
ED50 Cytotoxicity, Human HeLa-S^3 [16]: 1.92 µg/mL (≈ 18 µM)
ED50 Cytotoxicity, Human Colon SW480 [17]: 4.16 µg/mL (≈ 38.9 µM)
